From patent US20130039956A1, “USE OF NITROCARBOXYLIC ACIDS FOR THE TREATMENT, DIAGNOSIS AND PROPHYLAXIS OF AGGRESSIVE HEALING PATTERNS” (priority 2010, published 2013)

Test system: Human epithelial lung cells (A549)
Experiment: Membrane protein mediated cytotoxicity (NaF) in epithelial cells, MTT assay
Settings: 10 and 50 μmol, 2 hours preincubation, NaF 1-8 mmol; compared with native FA

9,10-nitro-cis-oleic acid [compound 10]
Relative effect on NaF-induced cytotoxicity: +
